## Apparent affinities of Ab-14 variants for a coronavirus HR2 peptide

Target: peptide PDVDLGDISGINAS, taken from heptad repeat 2 (HR2) of SARS-CoV-2 spike.

Parent: Ab-14, a human scFv built as VH, a (GGGGS)3 linker, VL. Only the CDRs of the heavy chain vary.
VH: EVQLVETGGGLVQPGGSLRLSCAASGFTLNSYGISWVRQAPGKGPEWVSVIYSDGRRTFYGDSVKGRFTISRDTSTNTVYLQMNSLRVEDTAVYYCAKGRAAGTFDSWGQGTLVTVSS
VL: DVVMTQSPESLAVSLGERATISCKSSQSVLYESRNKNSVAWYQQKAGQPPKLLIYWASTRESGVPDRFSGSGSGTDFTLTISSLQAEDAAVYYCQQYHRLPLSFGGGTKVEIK

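Phage display of a naive human antibody library on the peptide gave the parent. This is the validation round: designs drawn from the data on random variants, tested in the same kind of assay. Several design methods are mixed in this list. In AlphaSeq, yeast of one mating type display the scFv and yeast of the other type display the target. Binding brings cells together so that they mate, and sequencing counts the barcode pairs among the diploids. Scores were corrected for input abundance and mapped to Kd with protein pairs of known affinity run in the same pool. Mating was done six times.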

The parent's heavy chain CDRs are GFTLNSYGIS, VIYSDGRRTFYGDSVK, GRAAGTFDS; each variant's own CDRs replace them letter for letter. Affinities are written as log10 Kd with Kd in nM; a lower number is a better binder. An entry "n.d." has no value in the source: the pair was not observed among the diploids in that replicate. This suggests poor binding but is not conclusive. The authors' rule: three or more of the six replicates give a measured affinity, fewer mean a poor binder. Nonspecific signal, from three strains lacking the peptide, appeared in 1% of pairings of all heavy chain designs, centred on 2.08 (5% of these signals below 0.84); values are not corrected for it. Of ten entries with the parent sequence, four were seen in most replicates (averages 0.34 to 2.37), three in one and three in none, so single entries are noisy. Values of this round are not directly comparable with the first-round values of the same sequences.

log10 Kd (nM) by replicate	CDR-H1	CDR-H2	CDR-H3
0.07 -0.38 -0.63 -0.28 -0.38 -0.30	GFDLNSYGIS	VIYSDGRRTFYADSVK	GRQAGTFDA
n.d. n.d. n.d. n.d. n.d. n.d.	GFTLNEYGIS	VIYSDGRRTFYGDSVK	GRASVTFDI
n.d. n.d. n.d. n.d. 2.38 n.d.	GFNLDSYGIS	VIYSDGRRTFYGDSVK	LREAGTFDS
-0.02 -0.08 0.00 -0.50 -0.48 0.11	GFDLNEYGIS	VIYADGRRTAYSDSVK	GEVAGTFDL
-0.24 0.43 0.23 0.06 -0.22 0.72	GFELNSYGIS	VIYSDGRRTFYGDSVK	GREAGTFDT
n.d. n.d. n.d. n.d. n.d. n.d.	GFSLNSYGIS	VIYSDGRRTFYVDSVK	GKAAGTFDQ
n.d. n.d. 1.34 0.75 n.d. n.d.	GFVLNSYGIS	VIYSDGRRTFYTDSVK	GEAAGTFDS
1.65 1.13 1.27 1.70 1.91 1.71	GFTLNSYGIS	VIYSDGRRTFYSDSVK	GRAAGTFDQ
n.d. 2.18 0.94 n.d. 2.22 1.22	GFTLNSYGIS	VIYSDGVRTFYGDKVK	GRAAGTFDS
n.d. n.d. n.d. n.d. n.d. n.d.	GFSLNEYGIS	VIYADGLRSKYQDKVK	GELALSGDT
0.43 0.19 0.47 0.31 0.25 0.29	GFGLNSYGIS	VIYSDGRRTFYDDSVK	GQLAGTFDS
n.d. n.d. 3.27 1.27 1.26 1.25	NFDLNSYGIS	VIYSDGRRTFYGDSVK	GRWAGTFDS
n.d. n.d. n.d. n.d. n.d. n.d.	GFTLNSYGIS	VIYADGRRTFYGDSVK	GQAAGTFIS
n.d. n.d. n.d. n.d. n.d. n.d.	GFDLNEYGIS	VIYADGVRTFYADSVK	GNVAGTFDS
1.81 2.00 1.03 0.92 2.03 1.45	GFSLNEYGIS	VIYSDGRRTFYHDSVK	GPAAGTFDR
-0.71 -0.63 -0.73 -0.81 -0.32 -0.22	GFDLDEYGIS	VIYADGKRTAYVDSVK	GNVAGTFDT
n.d. n.d. n.d. n.d. n.d. n.d.	GFTLSSYGIH	VIYSDGRRTFYKDSVK	GRAAGTFDS
1.30 0.46 0.74 0.57 0.20 0.78	GFQLNSYGIS	VIYSDGRRTFYGDSVK	GREAGTFDV
0.20 0.45 0.50 -0.06 0.32 0.38	GFDLNSYGIS	VIYSDGRRTFYGDSVK	GRYAGTFES
n.d. n.d. n.d. 2.71 n.d. n.d.	GFSLNSYGIS	VIYSDGRRWFYGDSVK	GQTAGTFDS
n.d. n.d. n.d. n.d. n.d. n.d.	GFDLESYGIS	VIYADGMRTSYTNNVK	GQNVMISTG
0.19 -0.05 0.05 -0.08 0.10 0.05	GFTLNSYGIS	VIYADGRRTFYGDSVK	GQAAGTFDV
n.d. n.d. n.d. n.d. n.d. n.d.	GFDLNSYGSS	VIYSDGRRTFYGDSVK	GRAAGTFDS
0.49 0.42 0.08 -0.62 0.42 0.43	GFDLNEYGIS	VIYADGRRTFYADSVK	GNAAGTFDM
n.d. n.d. n.d. n.d. 1.26 0.68	GFTLKDYGIS	VIYSDGRREFYGDSVK	GRAAGTFDS
n.d. n.d. n.d. n.d. n.d. n.d.	GFQLDEYGIS	VIYADGIRQYYAQKVK	GYNSFDMTV
n.d. n.d. n.d. n.d. n.d. n.d.	GFGINEYGIS	VIYADGMRSFYANSVK	GAHGGYMVW
-0.23 -0.41 -0.01 -0.38 -0.35 -0.26	GFELNEYGIS	VIYSDGRRTFYGDSVK	GKIAGTFDS
2.04 -0.38 -0.65 0.35 -0.48 -0.42	GFDLNSYGIS	VIYSDGRRTFYGDSVK	GMNAGTFDS
-0.31 -0.19 -0.55 -0.36 0.13 0.27	GFTLNEYGIS	VIYSDGRRAFYTDSVK	GRTAGTFDS
n.d. n.d. n.d. n.d. n.d. n.d.	GFTLNSYGYT	VIYADGRRTFYGDSVK	GRAAGTFDS
n.d. n.d. n.d. n.d. n.d. n.d.	GFTLNSYGIS	VIYSDGKRTFYGDHVK	GRTAGTFDS
1.15 0.81 n.d. 1.45 1.36 n.d.	GFTLDSYGIS	VIYSDGRRTFYGDSVK	GSAAGTFDR
0.43 0.50 0.34 0.54 0.10 0.48	GFDLNEYGIS	VIYADGMRTAYTDSVK	GNEAGTFDG
n.d. n.d. n.d. n.d. n.d. n.d.	GFTGNEYGIS	VIYQDGRRTFYTDSVK	NRFAGTFDS
n.d. 1.53 n.d. 0.85 n.d. n.d.	GFWLNSYGIS	VIYSDGRRTAYGDSVK	GQAAGTFDS
0.30 0.25 0.58 0.04 0.20 0.44	GFNLNSYGIS	VIYSDGRRSFYADSVK	GRTAGTFDS

From the list, the first 3 with no signal in any replicate:

CDR-H1	CDR-H2	CDR-H3	log10 Kd (nM) by replicate
GFTLNEYGIS	VIYSDGRRTFYGDSVK	GRASVTFDI	n.d. n.d. n.d. n.d. n.d. n.d.
GFSLNSYGIS	VIYSDGRRTFYVDSVK	GKAAGTFDQ	n.d. n.d. n.d. n.d. n.d. n.d.
GFSLNEYGIS	VIYADGLRSKYQDKVK	GELALSGDT	n.d. n.d. n.d. n.d. n.d. n.d.

Values reported by Li et al. 2023, doi:10.1038/s41467-023-39022-2 (FLAb copy).